Reference: patent US6916461B2, “Metal complexes that contain perfluoroalkyl, process for their production and their use in NMR diagnosis” (Schering AG, priority 1996, dated 2005)

What was measured:
[1] = rat, in vivo, iv; cited from earlier work
[2] = rat, in vivo
[3] = rat, in vivo; cited from earlier work

Substance | dose eliminated [1] | amount still contained in the body [2] | route of excretion [3]
albumin-Gd-DTPA | 20 % of the dose | – | –
polylysine-Gd-DTPA | – | 7 % of the original dose | excreted unaltered by glomerular filtration via the kidney
